Ab-14 heavy chain CDR variants: yeast mating affinities

From the AlphaSeq antibody data of Engelhart et al. 2022 (doi:10.1038/s41597-022-01779-4), copy in the FLAb collection.

All variants were tested on one target, the spike HR2 peptide PDVDLGDISGINAS (SARS-CoV-2).

Ab-14 is the parent antibody, in scFv form: VH, then a (GGGGS)3 linker, then VL. The light chain is unchanged in all variants.
VH: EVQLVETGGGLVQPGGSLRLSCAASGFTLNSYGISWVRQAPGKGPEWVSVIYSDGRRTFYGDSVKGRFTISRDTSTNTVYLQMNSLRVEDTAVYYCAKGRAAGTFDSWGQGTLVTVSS
VL: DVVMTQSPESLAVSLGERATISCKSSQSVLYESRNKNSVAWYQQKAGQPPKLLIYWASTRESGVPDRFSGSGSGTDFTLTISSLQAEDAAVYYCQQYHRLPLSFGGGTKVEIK

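The parent was found by panning a naive human phage display library on the peptide. AAYL49 was designed without a model: most single CDR substitutions and a random sample of double and triple ones. The assay is AlphaSeq: two haploid yeast populations carry antibody and antigen on their surface. Mating (16 h, 30 °C) was followed by selection of diploids and sequencing of their barcodes. Scores were corrected for input abundance and mapped to Kd with protein pairs of known affinity run in the same pool. Each pool was mated in three replicate cultures.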

Variants are written as CDR1, CDR2 and CDR3 of the heavy chain (limits as in the source). Parent: GFTLNSYGIS, VIYSDGRRTFYGDSVK, GRAAGTFDS.
Every variant below is changed at A102 of the VH (sequential numbering).
The Kd shown is the geometric mean over detected replicates; a lower Kd is a better binder.
"not detected" means that the variant was in the library but no mating with the target was seen in any replicate; the authors take this as a sign of poor binding, and no number exists.
In this assay the parent's reference entry averaged 4.4 nM; its copy inside this library read 13 µM (one replicate of three).
Background: pairings of library AAYL49 with three empty control strains gave a value in 15% of cases (median 11 µM, 5th percentile 680 nM). Values in that range, when seen in few replicates, are hard to tell from nonspecific mating. Also given: how often the same scFv was detected with the empty control strains.

CDR-H1	CDR-H2	CDR-H3	apparent Kd	replicates with signal	empty controls
GFTLNSYGIS	VIYSDGLRTFYGDSVK	GRADGTFRS	4.4 nM	3/3	3/9
GFTLISYGIQ	VIYSDGRRTFYGDSVK	GRAFGTFDS	1.2 µM	1/3	2/9
GFTLNSVGIS	VIQSDGRRTFYGDSVK	GRATGTFDS	not detected	0/3	0/9
LFVLNSYGIS	VIYSDGRRTFYGDSVK	GRASGTFDS	not detected	0/3	0/9
GFTLNSRGIS	VIYSDGRRTFYGDSVK	GRARGTFDS	320 µM	2/3	1/9
GFTANSYGIS	VIYSDGRRTFYGDSVK	GRAFGTIDS	not detected	0/3	1/9
GMLLNSYGIS	VIYSDGRRTFYGDSVK	GRATGTFDS	7.0 µM	1/3	1/9
GFTLNSYGIS	VIYSDGRRTFYGDSVK	TCASGTFDS	35 µM	2/3	4/9
GFTLNSYGIS	VIYSDGDRTFYGDSVK	GRASGPFDS	3.2 µM	1/3	0/9
GFTLNSYGIS	VKYSEGRRTFYGDSVK	GRASGTFDS	not detected	0/3	0/9
GFTLNSYGIS	VIYTDGRPTFYGDSVK	GRAEGTFDS	not detected	0/3	0/9
GFTLNSYGIS	VIYSDGRRTFYGDSVK	GMAGGTFDS	34 nM	3/3	0/9
GFTLNSYGIS	VIYWDGRRTFYGDSVK	GRACGTFDS	98 nM	3/3	1/9
GFTLNSYGIS	VIYSDGRQTFYGCSVK	GRALGTFDS	not detected	0/3	1/9
GFTLNSYGIS	VIYSSGRRTFYGDSVK	GRQYGTFDS	not detected	0/3	0/9
GFTLNSYGIS	VIYSDGRRTFYGDSVK	GRALQTFDA	6.6 nM	3/3	0/9
GFTLNSYGKS	VIYSDYRRTFYGDSVK	GRAPGTFDS	12 µM	1/3	0/9
GFTLNSYGIS	VIYMDGRRTFYGASVK	GRASGTFDS	490 µM	1/3	0/9
GFTLNSYGIS	VIYSDGRRTFGGDSVK	GREWGTFDS	not detected	0/3	0/9
GFTVNSYGIS	VIYSDGRTTFYGDSVK	GRACGTFDS	not detected	0/3	0/9
GFTLNSYGIS	VIYSDGRRTFYGDSVK	GRAQGTFDS	3.2 nM	3/3	3/9
HFTLTSYGIS	VIYSDGRRTFYGDSVK	GRAKGTFDS	520 nM	3/3	2/9
GFTLNSGGIS	VIYSDGRRTFEGDSVK	GRAFGTFDS	not detected	0/3	0/9
GFTLNSYGIS	VIYSDGRRTFVGDSVK	GRACGTFDN	21 µM	1/3	2/9
GFTLNSYGIS	VIYSDGRRTPYGDSVE	GRADGTFDS	not detected	0/3	0/9
GFTLNSYGIS	VIYSDVRRTFYGDSVK	GRAIGRFDS	48 µM	1/3	0/9
GFTLNSYGIS	VIYSDQRRTFYGDSAK	GRAFGTFDS	not detected	0/3	0/9
GFTRNSYGIS	VIYSDRRRTFYGDSVK	GRALGTFDS	not detected	0/3	0/9
GATLNSYGIS	VIYSDGRRTFYGDSVK	GHASGTFDS	2.4 µM	3/3	2/9
GFTLNSYGIS	VIYSDGRRTFYGDIVK	GRAQDTFDS	9.4 µM	1/3	0/9
GFYLNSYGIS	VIYSDGRRTFYGISVK	GRAYGTFDS	9.9 µM	1/3	7/9
IFTLNSYGIS	VIYSDGRRTFYGDDVK	GRARGTFDS	58 µM	1/3	2/9
GFTDNSYGIS	VIYSDGRRTFYGDSVK	GRAVGTFDA	not detected	0/3	1/9
GCTLNSYGIS	VIYSDGRRTFYGDSVK	GRADGTFDS	not detected	0/3	3/9
GFTLNSYGIS	VIYSDGRRTFYGDSVK	GRAWGTFMS	not detected	0/3	2/9
GFTLNSYGIS	VIYSDGRRTFYGDSVK	GREEYTFDS	not detected	0/3	2/9
GFTLNSYGIS	VIYSDGRRTFYGDSVK	GRYQGTFES	not detected	0/3	3/9
GFTLNSYGIS	VIYSDGRRTDYGDSVK	GRAIGTFDS	3.1 µM	1/3	1/9
YFTLNSYGIS	VIYSDGRRIFYGDSVK	GRAYGTFDS	not detected	0/3	0/9
GFTLNSYGIS	VIYSDGRRTFYSDSVK	GRACGTFDS	1.4 nM	3/3	5/9
GFTLNSYGIS	VIYSDGRRTFYGDSVK	RRAHGTFDS	8.3 nM	3/3	4/9
GFTLNSYGIS	VIYSDGRRTFEGDSVK	GRAWGTFIS	1.7 µM	1/3	1/9
GFTLNSYGIS	VIYSDGRRGFYGDSVF	GRANGTFDS	7.1 µM	1/3	4/9
GFTLNSYGIS	LIYSDGRRTFYGDSVS	GRACGTFDS	not detected	0/3	0/9
GFTLNSYFIS	VIYSDGRRTFYGDSVK	GRDIGTFDS	not detected	0/3	3/9
GFTLNSYGIS	VIYSDGRRTFYGDSVK	GRASGKFDS	not detected	0/3	0/9
GFTLNSYGIS	VIYSDGRRTFMGDSVK	GRIKGTFDS	not detected	0/3	0/9
GFTLNSYPIS	VIYSDGRWTFYGDSVK	GRALGTFDS	220 µM	2/3	3/9
GFTLNEYGDS	VIYSDGRRTFYGDSVK	GRAHGTFDS	not detected	0/3	0/9
GFTLNSEGIS	VIYSDGRRTFYGDNVK	GRAWGTFDS	not detected	0/3	0/9
GFTLESYGIS	VIYSDGRRGFYGDSVK	GRAEGTFDS	9.8 µM	2/3	3/9
GFTLNSYGIS	VIYSDGRRTSYGDSVK	NRAIGTFDS	not detected	0/3	0/9
GFMLNSYGIS	TIYSDGRRTFYGDSVK	GRATGTFDS	1.6 µM	1/3	1/9
GFTLLSYGIS	VIYSDGRRTFYGDSVK	GRAWGTFDP	12 µM	1/3	1/9
GFTLNSYGIS	VFYSDGRRTFYGDSVK	CRAWGTFDS	not detected	0/3	0/9
GFTLNSYGIS	VMYSDGRRAFYGDSVK	GRANGTFDS	not detected	0/3	0/9
GFTLNSYGPS	VIYSDGERTFYGDSVK	GRADGTFDS	15 µM	1/3	2/9
GFTLNNYGIS	VIYVDGRRTFYGDSVK	GRAMGTFDS	not detected	0/3	0/9
GFTLNSYGIS	VIYSYGRRTKYGDSVK	GRATGTFDS	54 µM	1/3	3/9
GFTLDSYSIS	VIYSDGRRTFYGDSVK	GRACGTFDS	not detected	0/3	0/9
GFTLNSYGIS	VIYSDPRRTFYGDSVK	GRAILTFDS	not detected	0/3	1/9
GFTANSYGIS	VIYSDGRRHFYGDSVK	GRANGTFDS	53 µM	1/3	2/9

Excerpt, the final 4 entries:

CDR-H1	CDR-H2	CDR-H3	apparent Kd	replicates with signal	empty controls
GFTLNSYGIS	VIYSYGRRTKYGDSVK	GRATGTFDS	54 µM	1/3	3/9
GFTLDSYSIS	VIYSDGRRTFYGDSVK	GRACGTFDS	not detected	0/3	0/9
GFTLNSYGIS	VIYSDPRRTFYGDSVK	GRAILTFDS	not detected	0/3	1/9
GFTANSYGIS	VIYSDGRRHFYGDSVK	GRANGTFDS	53 µM	1/3	2/9